Laboratory results published in US8802720B2, “Acylamino-substituted fused cyclopentanecarboxylic acid derivatives and their use as pharmaceuticals” (SANOFI, priority 2008, dated 2014).

Sequences of proteins named here, by UniProt entry; tags and fusion partners are left off.
UniProt Q92633, whole entry: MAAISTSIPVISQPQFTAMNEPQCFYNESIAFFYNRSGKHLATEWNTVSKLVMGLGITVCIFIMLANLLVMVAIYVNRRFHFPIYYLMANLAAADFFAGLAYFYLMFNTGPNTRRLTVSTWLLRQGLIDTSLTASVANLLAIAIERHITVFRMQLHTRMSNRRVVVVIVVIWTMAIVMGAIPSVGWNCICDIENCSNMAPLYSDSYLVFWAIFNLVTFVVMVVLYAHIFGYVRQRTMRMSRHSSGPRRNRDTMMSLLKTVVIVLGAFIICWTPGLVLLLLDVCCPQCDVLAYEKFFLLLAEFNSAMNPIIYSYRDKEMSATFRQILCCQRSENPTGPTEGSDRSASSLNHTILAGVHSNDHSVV

Target: human Edg-2 receptor (LPA1 receptor) (Homo sapiens, UniProt Q92633)
Assay: Edg-2 receptor inhibition by FLIPR calcium fluorescence measurement (LPA-mediated calcium liberation)
Settings: read-out: Inhibitory concentrations IC50 for inhibition of the Edg-2 receptor; CHO cells stably overexpressing human Edg-2 receptor; LPA 18:1 100 nM; fluo-4 fluorescence; triplicate

IC50: < 100 nM
SMILES: COc1ccc(C(=O)NC2(C(=O)O)Cc3ccccc3C2)cc1OCCc1ccc(CCO)cc1
